{"sequences": {"note": "Amino acid sequences for entries named in this document (tags omitted). A change or cut given only in a name is not applied to a line headed by its entry.", "UniProt O00329": "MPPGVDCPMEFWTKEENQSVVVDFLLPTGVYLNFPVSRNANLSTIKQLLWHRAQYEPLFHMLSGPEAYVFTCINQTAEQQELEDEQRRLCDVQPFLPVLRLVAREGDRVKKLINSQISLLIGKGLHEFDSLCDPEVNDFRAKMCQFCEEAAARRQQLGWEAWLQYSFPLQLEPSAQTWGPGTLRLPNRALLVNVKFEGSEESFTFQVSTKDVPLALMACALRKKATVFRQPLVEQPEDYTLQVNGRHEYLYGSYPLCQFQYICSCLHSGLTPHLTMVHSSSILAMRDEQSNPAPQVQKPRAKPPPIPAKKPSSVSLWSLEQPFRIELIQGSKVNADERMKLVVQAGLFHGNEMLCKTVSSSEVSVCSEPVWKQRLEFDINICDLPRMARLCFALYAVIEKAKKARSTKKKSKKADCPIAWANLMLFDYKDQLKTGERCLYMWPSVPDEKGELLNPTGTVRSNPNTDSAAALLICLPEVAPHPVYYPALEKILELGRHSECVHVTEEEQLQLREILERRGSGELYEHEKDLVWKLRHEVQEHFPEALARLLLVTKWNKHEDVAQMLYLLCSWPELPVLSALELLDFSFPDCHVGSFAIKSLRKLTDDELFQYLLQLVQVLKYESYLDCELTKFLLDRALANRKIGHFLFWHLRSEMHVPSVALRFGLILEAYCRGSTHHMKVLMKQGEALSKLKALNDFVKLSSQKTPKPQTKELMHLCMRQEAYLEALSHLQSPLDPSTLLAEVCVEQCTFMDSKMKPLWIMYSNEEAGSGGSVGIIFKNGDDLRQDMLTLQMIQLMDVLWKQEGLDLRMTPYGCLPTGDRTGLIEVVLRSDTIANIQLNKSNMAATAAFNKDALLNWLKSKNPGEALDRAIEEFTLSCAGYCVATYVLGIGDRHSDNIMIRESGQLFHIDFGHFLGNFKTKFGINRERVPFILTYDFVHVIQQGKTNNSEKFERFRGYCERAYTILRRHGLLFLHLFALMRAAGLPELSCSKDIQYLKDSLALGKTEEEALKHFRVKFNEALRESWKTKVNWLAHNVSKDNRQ", "UniProt P42338": "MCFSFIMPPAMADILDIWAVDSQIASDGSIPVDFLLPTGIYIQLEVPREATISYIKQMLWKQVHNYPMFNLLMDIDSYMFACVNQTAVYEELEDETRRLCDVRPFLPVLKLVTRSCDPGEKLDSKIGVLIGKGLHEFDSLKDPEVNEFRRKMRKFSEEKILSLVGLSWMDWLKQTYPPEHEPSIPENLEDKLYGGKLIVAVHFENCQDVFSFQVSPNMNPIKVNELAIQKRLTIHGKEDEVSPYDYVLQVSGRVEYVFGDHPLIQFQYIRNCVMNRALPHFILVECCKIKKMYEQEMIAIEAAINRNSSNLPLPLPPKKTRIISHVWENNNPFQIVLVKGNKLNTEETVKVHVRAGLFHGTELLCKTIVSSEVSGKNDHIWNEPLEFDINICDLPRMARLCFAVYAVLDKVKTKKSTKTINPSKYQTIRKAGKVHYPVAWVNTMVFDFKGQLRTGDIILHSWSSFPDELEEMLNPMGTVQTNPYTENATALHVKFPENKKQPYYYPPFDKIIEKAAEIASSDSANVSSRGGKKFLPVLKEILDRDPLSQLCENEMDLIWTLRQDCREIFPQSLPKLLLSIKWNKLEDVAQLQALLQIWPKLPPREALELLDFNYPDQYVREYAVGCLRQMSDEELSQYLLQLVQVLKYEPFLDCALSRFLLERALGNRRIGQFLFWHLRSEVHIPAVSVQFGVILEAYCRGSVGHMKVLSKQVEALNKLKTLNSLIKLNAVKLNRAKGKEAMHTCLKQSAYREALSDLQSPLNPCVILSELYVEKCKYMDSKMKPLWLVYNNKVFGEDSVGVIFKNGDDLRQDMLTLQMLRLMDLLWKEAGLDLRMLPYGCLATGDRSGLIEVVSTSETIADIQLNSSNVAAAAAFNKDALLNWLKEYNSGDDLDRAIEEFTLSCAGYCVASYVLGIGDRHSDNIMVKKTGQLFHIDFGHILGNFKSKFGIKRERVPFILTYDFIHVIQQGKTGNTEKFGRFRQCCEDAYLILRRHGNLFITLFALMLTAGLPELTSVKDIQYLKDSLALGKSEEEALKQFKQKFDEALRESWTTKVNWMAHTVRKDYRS", "UniProt P42336, whole entry": "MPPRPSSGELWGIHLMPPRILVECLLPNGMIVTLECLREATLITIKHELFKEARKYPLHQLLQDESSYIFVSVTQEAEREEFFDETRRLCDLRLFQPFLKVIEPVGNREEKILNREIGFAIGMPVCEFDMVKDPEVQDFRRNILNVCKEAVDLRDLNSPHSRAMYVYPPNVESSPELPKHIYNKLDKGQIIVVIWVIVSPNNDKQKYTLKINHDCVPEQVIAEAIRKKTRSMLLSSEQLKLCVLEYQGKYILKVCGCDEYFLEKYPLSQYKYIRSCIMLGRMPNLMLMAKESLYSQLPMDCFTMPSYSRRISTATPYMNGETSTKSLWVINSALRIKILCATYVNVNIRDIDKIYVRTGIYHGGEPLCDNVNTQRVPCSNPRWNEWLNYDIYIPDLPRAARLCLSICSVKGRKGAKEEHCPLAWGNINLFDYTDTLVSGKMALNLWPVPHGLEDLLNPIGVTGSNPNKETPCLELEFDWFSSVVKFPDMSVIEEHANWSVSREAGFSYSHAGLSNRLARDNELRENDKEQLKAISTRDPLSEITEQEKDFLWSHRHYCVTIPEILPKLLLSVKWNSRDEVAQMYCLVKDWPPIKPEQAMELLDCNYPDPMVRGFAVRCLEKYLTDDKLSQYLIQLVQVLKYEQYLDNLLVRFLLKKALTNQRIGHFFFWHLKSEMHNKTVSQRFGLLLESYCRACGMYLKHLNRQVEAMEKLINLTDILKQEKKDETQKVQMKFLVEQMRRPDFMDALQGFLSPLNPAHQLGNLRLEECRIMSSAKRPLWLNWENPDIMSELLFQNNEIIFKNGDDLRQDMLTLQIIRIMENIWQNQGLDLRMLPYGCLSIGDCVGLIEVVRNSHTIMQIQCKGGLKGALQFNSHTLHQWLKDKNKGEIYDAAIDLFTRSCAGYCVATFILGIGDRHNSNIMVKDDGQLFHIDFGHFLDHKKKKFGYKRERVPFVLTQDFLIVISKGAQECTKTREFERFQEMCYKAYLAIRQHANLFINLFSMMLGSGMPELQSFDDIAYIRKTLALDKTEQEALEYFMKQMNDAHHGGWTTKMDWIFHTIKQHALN"}, "source": "patent US9637492B2", "about": "“Benzothiazole kinase inhibitors and methods of use” (Intellikine LLC, priority 2008, dated 2017)", "note": "pIC50: −log10 of the molar value."}
{"target": "T1, PI3K delta (Homo sapiens, UniProt O00329)", "T1 construct": "purchased Upstate", "experiment": "PI3K delta inhibition assay", "assay_type": "biochemical", "conditions": "binned"}
{"smiles": "CNC(=O)Cn1nc(-c2ccc3nc(NC(C)=O)sc3c2)c2c(N)ncnc21", "note": "[Compound 18]", "pIC50": "< 6.00"}
{"target": "T2, PI3K beta (Homo sapiens, UniProt P42338)", "T2 construct": "purchased Upstate", "experiment": "PI3K beta inhibition assay", "assay_type": "biochemical", "conditions": "binned"}
{"smiles": "CC(=O)Nc1nc2ccc(-c3nn(C4CCC4)c4ncnc(N)c34)cc2s1", "note": "[Compound 10]", "pIC50": "< 6.00"}
{"smiles": "CCNc1nc2ccc(-c3nn(C(C)C)c4ncnc(N)c34)cc2s1", "note": "[Compound 12]", "pIC50": "< 6.00"}
{"smiles": "CC(=O)Nc1nc2ccc(-c3nn(C4CCOCC4)c4ncnc(N)c34)cc2s1", "note": "[Compound 19]", "pIC50": "< 6.00"}
{"smiles": "CNC(=O)Nc1nc2ccc(-c3nn(C(C)C)c4ncnc(N)c34)cc2s1", "note": "[Compound 20]", "pIC50": "≥ 6.30"}
{"target": "T3, PI3K alpha (Homo sapiens, UniProt P42336)", "T3 construct": "purchased Upstate", "experiment": "PI3K alpha inhibition assay", "assay_type": "biochemical", "conditions": "binned"}
{"smiles": "CC(C)n1nc(-c2ccc3ncsc3c2)c2c(N)ncnc21", "note": "[Compound 2]", "pIC50": "< 6.00"}
{"smiles": "CC(C)C(=O)Nc1nc2ccc(-c3nn(C(C)C)c4ncnc(N)c34)cc2s1", "note": "[Compound 7]", "pIC50": "< 6.00"}
{"smiles": "CC(=O)Nc1nc2cc(-c3nn(C(C)C)c4ncnc(N)c34)ccc2s1", "note": "[Compound 17]", "pIC50": "< 6.00"}
{"smiles": "CNC(=O)Cn1nc(-c2ccc3nc(NC(C)=O)sc3c2)c2c(N)ncnc21", "note": "[Compound 18]", "pIC50": "< 6.00"}
